# In patent US10799620B2, “Ring and tubular structures and methods of synthesis and use thereof” (BOARD OF REGENTS OF THE UNIVERSITY OF NEBRASKA, priority 2016, dated 2020):
# What was measured:
# [1] = FIG. 2
# [2] = PU nanofiber ring, BSA located in shell, FIG. 6C
substance,measurement,setting,value
bovine serum albumin [BSA],initial in vitro release of BSA,[1]; from (PCL) nanofiber ring device,significantly inhibits the initial release
same,initial in vitro release of BSA,[1]; from traditional electrospun (PCL) nanofiber membranes,large initial burst
same,release profile from shell of ring,[2],released in an initial burst

# Where two headings read alike, the source gives them in different places.
